The record followed here is article PMC11187553 (RSC Medicinal Chemistry, 2024).

This series relates to SH-SY5Y cells. The series is described as follows: Cytotoxic effects in SH-SY5Y cells. Type of series: cell-based, human. The conditions noted are these: 0.1-100 μM, 24, 48 or 72 h.

For the compound `CC1=C(NCc2ccc(C(=O)Nc3ccccc3N)cc2)C(=O)c2ccccc2C1=O` [Compound 6, N-(2-Aminophenyl)-4-(((3-methyl-1,4-dioxo-1,4-dihydronaphthalen-2-yl)amino)methyl)benzamide], the “cytotoxicity (in words)” value is reported as “highest cytotoxicity”.
